Measured values from PMC5423295, “Positive Modulatory Interactions of NMDA Receptor GluN1/2B Ligand Binding Domains Attenuate Antagonists Activity” (Frontiers in Pharmacology, 2017).

The chains behind the UniProt entries cited, without tags or fusion partners. Where a name states a change or a piece, a line headed by the entry shows the natural chain unless it says otherwise. Residues count along the entry.
UniProt Q00960, 27-1482: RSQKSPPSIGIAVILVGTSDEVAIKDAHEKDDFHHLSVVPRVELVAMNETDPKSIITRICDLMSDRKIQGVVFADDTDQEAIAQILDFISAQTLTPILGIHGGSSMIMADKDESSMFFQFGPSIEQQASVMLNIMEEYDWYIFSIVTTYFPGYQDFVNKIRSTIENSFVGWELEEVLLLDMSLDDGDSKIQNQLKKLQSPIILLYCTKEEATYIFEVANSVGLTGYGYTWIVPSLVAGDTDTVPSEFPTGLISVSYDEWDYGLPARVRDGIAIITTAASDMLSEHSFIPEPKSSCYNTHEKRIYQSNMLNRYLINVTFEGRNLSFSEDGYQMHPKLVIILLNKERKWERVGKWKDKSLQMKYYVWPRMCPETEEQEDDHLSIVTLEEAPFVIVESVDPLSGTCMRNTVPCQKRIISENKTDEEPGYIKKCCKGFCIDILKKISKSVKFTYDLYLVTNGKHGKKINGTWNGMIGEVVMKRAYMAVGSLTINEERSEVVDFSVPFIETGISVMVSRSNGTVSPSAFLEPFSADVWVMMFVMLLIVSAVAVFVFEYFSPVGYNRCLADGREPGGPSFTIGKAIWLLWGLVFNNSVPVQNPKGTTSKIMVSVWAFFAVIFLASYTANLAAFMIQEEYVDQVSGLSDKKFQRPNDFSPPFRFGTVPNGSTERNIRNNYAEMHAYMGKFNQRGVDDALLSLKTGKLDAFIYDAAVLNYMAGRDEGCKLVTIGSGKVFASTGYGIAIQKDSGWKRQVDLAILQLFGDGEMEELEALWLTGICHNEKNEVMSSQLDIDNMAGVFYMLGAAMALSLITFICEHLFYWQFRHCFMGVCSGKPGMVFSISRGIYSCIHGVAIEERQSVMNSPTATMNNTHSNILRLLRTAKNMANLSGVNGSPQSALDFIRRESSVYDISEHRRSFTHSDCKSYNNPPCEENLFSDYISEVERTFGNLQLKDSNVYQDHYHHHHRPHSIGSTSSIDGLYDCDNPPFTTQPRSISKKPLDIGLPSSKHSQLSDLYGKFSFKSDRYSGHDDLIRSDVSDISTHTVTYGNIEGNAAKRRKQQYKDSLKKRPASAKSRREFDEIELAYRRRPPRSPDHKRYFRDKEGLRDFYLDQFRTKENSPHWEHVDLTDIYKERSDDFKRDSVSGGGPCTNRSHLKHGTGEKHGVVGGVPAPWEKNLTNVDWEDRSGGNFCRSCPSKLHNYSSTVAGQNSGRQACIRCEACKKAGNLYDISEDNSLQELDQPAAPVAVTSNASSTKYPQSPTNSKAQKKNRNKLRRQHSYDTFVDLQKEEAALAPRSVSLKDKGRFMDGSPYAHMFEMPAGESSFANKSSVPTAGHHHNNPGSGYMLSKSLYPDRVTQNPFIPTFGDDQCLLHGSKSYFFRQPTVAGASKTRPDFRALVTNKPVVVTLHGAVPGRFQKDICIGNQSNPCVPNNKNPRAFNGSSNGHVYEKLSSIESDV

Experiments:
Assay in all cases: two-electrode voltage clamp, Xenopus oocytes
Assay type in all cases: cell-based
Details in all cases: read-out: EC50 or IC50
[1] = target: T1, GluN1/2B NMDA receptor (GluN1a + GluN2B) (Rattus norvegicus, UniProt P35439+Q00960, P35439:K531A)
T1 construct: gene Grin1; cRNAs 1:1-3 in Xenopus oocytes; heterotetramer
Text: (§1) two-electrode voltage clamp, Xenopus oocytes on GluN1/2B NMDA receptor (GluN1a + GluN2B)

[2] = target: T2, GluN1/2B NMDA receptor (GluN1a + GluN2B) (Rattus norvegicus, UniProt P35439+Q00960, P35439:N521A)
T2 construct: gene Grin1; cRNAs 1:1-3 in Xenopus oocytes; heterotetramer
Text: as §1

[3] = target: T3, GluN1/2B NMDA receptor (GluN1a + GluN2B) (Rattus norvegicus, UniProt P35439+Q00960)
T3 construct: gene Grin1; cRNAs 1:1-3 in Xenopus oocytes; heterotetramer
Text: as §1

[4] = target: T4, GluN1/2B NMDA receptor (GluN1a + GluN2B) (Rattus norvegicus, UniProt P35439+Q00960, P35439:N521D)
T4 construct: gene Grin1; cRNAs 1:1-3 in Xenopus oocytes; heterotetramer
Text: as §1

- IC50 [1]: 600 ± 70 nM
- IC50 [2]: 640 ± 40 nM
- IC50 [3]: 1430 ± 110 nM
- IC50 [4]: 840 ± 100 nM
SMILES: CC12CC3CC(C)(C1)CC(N)(C3)C2 [Memantine]
